pKi: −log10 of the molar value.
Target: Histamine H3 receptor (Rattus norvegicus, UniProt Q9QYN8)
Assay: Rat Histamine H3 receptor antagonism determined by [K+] - evoked depolarization-induced release of [3H]histamine from rat cerebral cortex synaptosomes
Type: functional, subcellular, Brain

Chains of the proteins cited; added tags and fusions are not shown. Lines headed by an entry give the natural chain unless they say otherwise; changes in a name come on top.
UniProt Q9QYN8: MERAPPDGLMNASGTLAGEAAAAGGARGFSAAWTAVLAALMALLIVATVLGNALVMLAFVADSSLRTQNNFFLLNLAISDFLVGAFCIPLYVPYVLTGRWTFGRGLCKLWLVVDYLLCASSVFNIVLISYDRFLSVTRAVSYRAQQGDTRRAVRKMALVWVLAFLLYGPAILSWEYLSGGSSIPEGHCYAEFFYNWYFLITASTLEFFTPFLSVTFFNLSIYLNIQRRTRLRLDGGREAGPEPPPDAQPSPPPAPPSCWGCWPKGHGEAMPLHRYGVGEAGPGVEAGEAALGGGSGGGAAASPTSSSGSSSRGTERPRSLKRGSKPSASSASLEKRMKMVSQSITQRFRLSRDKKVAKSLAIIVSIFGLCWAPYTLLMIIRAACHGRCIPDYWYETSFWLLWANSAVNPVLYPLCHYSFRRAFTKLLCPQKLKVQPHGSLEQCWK

pKi: 6.32
SMILES: N#Cc1ccccc1OCCc1c[nH]cn1
